# Measured properties of organic chemicals

Values as listed in the OPERA 2.9 repository of K. Mansouri.

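OPERA's authors assembled the values from existing databases and did not measure them anew. A listed value is a point estimate from one report or more. Method, purity and exact conditions of the single measurements are not given. A value may pool stereoisomers or salt forms, and the file does not say which form was measured. Some upstream entries may be estimates or bounds without being marked so.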

The melting point is given in degrees Celsius. Boiling points are in °C, nominally at 760 mmHg. logP is the log10 of the octanol-water partition coefficient; higher is more lipophilic. Water solubility is log10 of mol/L, nominally at 25 °C; higher is more soluble. Vapor pressure is log10 of mmHg; the set covers 15 to 30 °C, mostly 20 to 25 °C. The unbound fraction in human plasma runs from 0 (all bound) to 1 (all free). Cells with "–" have no entry in this list.

SMILES,name,melting point (°C),boiling point (°C),log Kow,log S (log10 mol/L),vapor pressure (log10 mmHg),fraction unbound
CC(C=O)c1ccccc1 (stereo not given),Hydratropaldehyde,–,–,1.96,-1.713,–,–
COCc1ccc(O)c(OC)c1,2-Methoxy-4-(methoxymethyl)phenol,–,–,0.7,-1.893,-2.763,–
CC(=O)C(/N=N/c1ccc(S(=O)(=O)[O-])cc1[N+](=O)[O-])C(=O)Nc1ccccc1C.CC(=O)C(/N=N/c1ccc(S(=O)(=O)[O-])cc1[N+](=O)[O-])C(=O)Nc1ccccc1C.[Ca+2] (stereo partly drawn),–,–,–,0.04,-7.74,–,–
Brc1cccc(Oc2ccccc2)c1,PBDE 002,20,–,–,–,-3.016,–
Nc1ccc(C(c2ccc(N)cc2)c2ccc(N)cc2)cc1,"Benzeneamine, 4,4',4''-methylidynetris- (9CI)",207.8,–,–,–,-10.43,–
CC(C)=CCCC(C)CCOC(=O)C(C)C (stereo not given),Citronellyl isobutyrate,-14.3,–,5.415,–,–,–
O=S(=O)(F)C(F)(F)C(F)(F)OC(F)=C(F)F,Perfluoro(3-oxapent-4-ene)sulfonyl fluoride,–,75.6,–,–,2.003,–
O=c1[nH]sc2ccccc12,"1,2-Benzisothiazolin-3-one",–,328.7,0.76,-5.48,-5.634,–
N=C(N)c1ccc(OCCCCCOc2ccc(C(=N)N)cc2)cc1,Pentamidine,–,–,4,-4.159,–,0.3
CCC(C)CCCC(C)CCCC(C)C (stereo not given),"2,6,10-Trimethyldodecane",–,–,–,-8.929,-0.174,–
CCCCNC(=O)CC[C@H](NC(=O)C(CC)CCCC)C(=O)NCCCC (some centres undefined),Dibutyl ethylhexanoyl glutamide,187.4,303.4,2.51,-4.542,-9.803,–
CCCC(=O)O[C@]1(C(=O)CO)CC[C@H]2[C@@H]3CCC4=CC(=O)CC[C@]4(C)[C@H]3[C@@H](O)C[C@@]21C,Hydrocortisone 17-butyrate,218,–,3.18,–,–,–
CCCC[C@H]1CO[C@H](c2ccc(-c3ccc(-c4cc(F)c(F)c(F)c4)c(F)c3)cc2)OC1,–,74.3,–,–,-6.94,-10.67,–
CC1CCOCC1,Tetrahydro-4-methyl-2H-pyran,–,–,1.9,–,1.349,–
CC(C)(C)c1n[nH]c(=O)[nH]c1=O,Metribuzin-DADK,–,–,–,-1.5,-7.775,–
CCCCCCCC/C=C\CCCCCCCCOC(=O)CCCCCCC/C=C\CCCCCCCC,(9Z)-9-Octadecen-1-yl (9Z)-9-octadecenoate,3.375,–,–,-7.028,–,–
CCCCCCCC(=O)OCC,Ethyl octanoate,–,–,4.47,–,-0.147,–
O=C(c1ccc(Oc2ccccc2)cc1)c1ccc(C(=O)c2ccc(Oc3ccccc3)cc2)cc1,"Methanone, 1,4-phenylenebis[(4-phenoxyphenyl)-",216.1,–,3.64,–,–,–
CC/C=C\CCOC(=O)C(C)C,(3Z)-Hex-3-en-1-yl 2-methylpropanoate,–,–,–,-3.174,0.26,–
CC(C)CCCCCC(=O)NCCCCCC(=O)O,6-(Isononanoylamino)hexanoic acid,61,–,2.47,-2.752,–,–
COc1nc(OC)nc(-c2c(O)n(S(=O)(=O)C(F)F)c3c(F)cccc23)n1,–,–,–,0.8,-6.209,–,–